The entries are a selection whose mix differs from that of the whole data set. The source made the active and inactive calls.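 Rule for the calls: active = mean inhibition across replicates of 60% or more, whatever share of single replicates reaches that level; inconclusive = some that reach 60%, reason not given; inactive = mean inhibition across replicates below 60%.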
Assay: inhibitors of MITF-dependent TRPM1 promoter reporter, primary screen, cell-based, SK-MEL-5, single point, luciferase (AID 488899)
Details: SK-MEL-5 TRPM1 promoter luciferase, 24 h; at 12.5 µM; hits give high values

SMILES | inhibition
O=P1(Nc2ncccn2)COc2ccccc2OC1 | inactive: -2.86%
O=P1(Nc2ccc(Br)cn2)COc2ccccc2OC1 | inactive: 14.6%
Cc1ccc(OCC(=O)OC2CN3CCC2CC3)cc1 (centres undefined) | inactive: -4.55%
O=[As](O)(c1cccs1)c1cccs1 | inactive: 12.5%
Nc1cccc([As](=O)(O)c2ccccc2)c1 | inactive: -7.23%
Cc1nn(-c2ccccc2)c2c1P(=O)(N1CCOCC1)N(C)C(c1ccccc1)=N2 (centres undefined) | inactive: 0.019%
CC1CCC(C(C)C)C(OP(=O)(Nc2ccccn2)c2ccccc2)C1 (centres undefined) | inactive: 1.58%
Cc1ccc(C(=O)OC2CN3CCC2CC3)cc1 (centres undefined) | inactive: 1.1%
O=C(/C=C/c1ccccc1)OC1CN2CCC1CC2 (centres undefined) | inactive: -9.95%
CCCC1OP(=O)(Nc2ccccc2)OCC1CC (centres undefined) | inactive: -17.4%
CN(C)C1(CNC(=O)c2ccc(S(C)(=O)=O)cc2)CCCCC1 | inactive: 7.77%
COc1ccccc1CNC(=O)COC(=O)C(O)(c1ccccc1)c1ccccc1 | inactive: -0.486%
CC1(CBr)Cn2c(nc3ccccc3c2=O)S1 (centres undefined) | inactive: -3.38%
CC(C)/C=N\N=C(\N)N[N+](=O)[O-] | inactive: 7%
CN(C(=O)Cc1ccc(Cl)c(Cl)c1)[C@@H]1CCCC[C@H]1N1CCCC1 | inactive: -8.03%
CCOP(=O)(Nc1ccc(C)cn1)OCC | inactive: 12.8%
O=P1(Nc2ccccn2)COc2ccccc2OC1 | inactive: 3.92%
CCC1=CC2Cc3nc4ccc(Cl)cc4c(N)c3C(C1)C2 (centres undefined) | inactive: -9.42%
CCOP(=O)(NC(=NC(C)c1ccccc1)NC(C)c1ccccc1)OCC (centres undefined) | inactive: 2.3%
Clc1n[nH]nc1-c1nn[nH][15n]1 | inactive: -5.08%
CC(C)(C)C(=O)NC(Sc1ncccn1)C(Cl)(Cl)Cl (centres undefined) | inactive: 23.6%
CCCOP(=S)(Nc1nc(N)cc(=O)[nH]1)OCCC | inactive: 4.84%

SMILES | inhibition
Cc1ccc(NCCc2c([N+](=O)[O-])cc([N+](=O)[O-])cc2[N+](=O)[O-])cc1 | inactive: 8.3%
Nc1cccc2c([As](=O)(O)O)cccc12 | inactive: -21.5%
COc1cc(C2NCCC3(OCCO3)C2(C)C)cc(OC)c1OC (centres undefined) | inactive: -1.87%
CCOP(=O)(Nc1cccc2ccccc12)OCC | inactive: 7.55%
COc1cc(C(=O)NCC2(N3CCOCC3)CCCCC2)cc(Cl)c1OC(C)C | inactive: 13.9%
O=[As](O)(O)c1cccnc1 | inactive: 9.1%
CS(=O)(=O)c1ccc(Cl)c(NC(=O)COC(=O)C(O)(c2ccccc2)c2ccccc2)c1 | inactive: 6.3%
O=C(OC1CN2CCC1CC2)c1ccc(Cl)cc1 (centres undefined) | inactive: -0.148%
O=[As](O)(c1cccc(O)c1)c1cccc(O)c1 | inactive: 5.11%
Cc1cccc(OCC(=O)OC2CN3CCC2CC3)c1 (centres undefined) | inactive: 4.8%
NC(=O)Nc1ccc([As](=O)(O)O)cc1 | inactive: 2.31%
CN(C)C(=O)c1cc([N+](=O)[O-])cc2c1-c1c(cc([N+](=O)[O-])cc1[N+](=O)[O-])C2=O | active: 70.9%
O=[N+]([O-])c1ccc2c(c1)nnn2O | inactive: 8.48%
CN(C(=O)Cc1ccc(Cl)c(Cl)c1)[C@H]1CC[C@@]2(CCCO2)C[C@@H]1N1CCCC1 | inactive: -9.42%
N#CCCN(C(=O)COC(=O)C(O)(c1ccccc1)c1ccccc1)c1ccc(F)cc1 | inactive: 3.43%
CCOP1(=S)c2c(C)nn(CCC#N)c2N=C(c2ccc(F)cc2)N1C (centres undefined) | inactive: 9.45%
CN(C(=O)Cc1ccccc1)[C@@H]1CC[C@]2(CCCO2)C[C@H]1N1CCCC1 | inactive: -14.1%
CS(=O)(=O)c1cc([N+](=O)[O-])c2no[n+]([O-])c2c1 | inactive: 11.9%
CCOP1(=S)c2c(C)nn(CCC#N)c2N=C(c2ccccc2F)N1C (centres undefined) | inactive: 3.32%
O=P(Nc1nccs1)(c1ccccc1)c1nc2ccccc2s1 (centres undefined) | inactive: 12.1%
O=P(Nc1nccs1)(Oc1ccccc1)Oc1ccccc1 | inactive: 0.0925%
Nc1ccccc1[As](=O)(O)c1ccccc1 | inactive: 10.4%

SMILES | inhibition
O=C(O)COc1ccc([As](=O)(O)O)cc1[N+](=O)[O-] | inactive: 1.87%
CC(C)c1ccc(OP(=O)(Nc2ccccn2)Oc2ccccc2F)cc1 (centres undefined) | inactive: -2.97%
COC(=O)C1(C)COP(=O)(N2CCCCCC2)OC1 (centres undefined) | inactive: 1.34%
ClCCSc1nnc(-c2cccnc2)o1 | inactive: -15.2%
CCN(CC)C(=S)SC(NC=O)C(Cl)(Cl)Cl (centres undefined) | inactive: 38.2%
O=C(OC1CN2CCC1CC2)c1cccc2[nH]cnc12 (centres undefined) | inactive: 9.76%
CC(C)NC(=O)NP(=O)(Oc1ccccc1)Oc1ccccc1 | inactive: -4.81%
O=[N+]([O-])c1cc([N+](=O)[O-])c(-c2ccn[nH]2)s1 | active: 73.2%
O=[As](O)(c1ccc(O)cc1)c1ccccc1O | inactive: -10.7%
C[As](=O)(O)c1cccc(C(=O)O)c1 | inactive: -8.27%
COc1cc(C(=O)NCC2(N3CCOCC3)CCCCC2)ccc1OCC(C)C | inactive: -9.68%
O=[N+]([O-])c1ccc(-c2cc([N+](=O)[O-])c(O)c([N+](=O)[O-])c2)cc1 | inactive: 2.34%
Cc1ccc2nc3c(c(C)c2c1)CC(C(Cl)Cl)S3 (centres undefined) | inactive: -8.44%
Cc1ccc(OP(=O)(Nc2ccc([N+](=O)[O-])cn2)Oc2ccc(C)cc2)cc1 | inactive: 10.6%
COc1ccc(N/C(=N/P(=O)(N2CCOCC2)N2CCOCC2)N2CCOCC2)cc1 | inactive: -0.591%
O=[N+]([O-])c1cc(Oc2ccc([N+](=O)[O-])cc2C(F)(F)F)cc([N+](=O)[O-])c1 | inactive: 22.4%
O=C(OC1CN2CCC1CC2)C12CC3CC(CC(C3)C1)C2 (centres undefined) | inactive: -8.74%
Cc1cc(=O)[nH]c(N[N+](=O)[O-])n1 | inactive: -14.3%
Cc1c2c(nc3ccccc13)SC(C(Cl)Cl)C2 (centres undefined) | inactive: -10.2%
COc1ccc2nc(NP(=O)(c3ccccc3)c3ccccc3)sc2c1 | inactive: 2.98%
